Numbers after ± are expanded uncertainties.
What was measured:
[1] = Molar enthalpy of transition or fusion; conditions: Crystal; DSC
[2] = Crystal; DTA

For `CC(C)(C)NSc1nc2ccccc2s1` [N-tert-butylbenzothiazole-2-sulphenamide], which “Molar enthalpy of transition or fusion” value [1] is on record?
Its value is 6.41 ± 0.143 kcal/mol.

What about the Normal melting temperature [2] of the same compound?
Its Normal melting temperature is 109.30 ± 0.7 °C.

Source: the NIST ThermoML archive (doi:10.1021/acs.jced.8b00954)
